Measured values: patent US20200399318A1, “PEPTIDE INHIBITORS OF PHOSPHOGLYCERATE MUTASE AND METHODS OF USE” (priority 2016, published 2020)

The chains behind the UniProt entries cited, without tags or fusion partners.
UniProt G5EFZ1, whole entry, looked up: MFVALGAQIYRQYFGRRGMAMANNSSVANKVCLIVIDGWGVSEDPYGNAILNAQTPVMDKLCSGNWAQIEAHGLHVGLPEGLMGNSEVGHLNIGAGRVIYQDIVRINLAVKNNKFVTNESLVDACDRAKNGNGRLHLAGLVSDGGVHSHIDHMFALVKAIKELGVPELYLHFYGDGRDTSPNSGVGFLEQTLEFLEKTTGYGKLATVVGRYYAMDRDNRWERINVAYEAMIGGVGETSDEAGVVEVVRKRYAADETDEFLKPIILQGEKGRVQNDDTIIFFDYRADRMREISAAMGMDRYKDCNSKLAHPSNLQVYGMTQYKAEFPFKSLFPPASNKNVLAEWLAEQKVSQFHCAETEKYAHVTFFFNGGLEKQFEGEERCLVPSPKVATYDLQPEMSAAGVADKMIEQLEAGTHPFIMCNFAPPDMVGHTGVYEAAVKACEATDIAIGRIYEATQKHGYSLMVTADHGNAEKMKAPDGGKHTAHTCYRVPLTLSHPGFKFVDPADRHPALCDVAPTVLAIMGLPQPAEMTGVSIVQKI

Biological target: C. elegans iPGM (Caenorhabditis elegans, UniProt G5EFZ1)
Assay: PGM coupled-enzyme bioluminescent end-point assay (Kinase-Glo Plus), 1536-well
Conditions: 5 nM C. elegans iPGM, 0.4 mM 3PG; ± s.d. or s.e. of fit; NA = no appreciable inhibition

With `CC(C)C[C@@H]1NC(=O)[C@@H](Cc2ccc(O)cc2)NC(=O)CSC[C@@H](C(=O)N[C@@H](CC(N)=O)C(=O)N[C@H](C(=O)N[C@@H](CS)C(N)=O)[C@@H](C)O)NC(=O)[C@H](CC(N)=O)NC(=O)[C@@H]2CCCN2C(=O)[C@H](Cc2c[nH]c3ccccc23)NC(=O)[C@H](CCC(=O)O)NC1=O` the “C. elegans iPGM PIC50, M” value was 5.61 ± 0.23 M.
